These are literature values, as cited in patent publication US20260385999A1, “GUT MICROBE DERIVED AROMATIC AMINO ACID METABOLITES FOR DETECTION AND TREATMENT OF DISEASE” (published 2026).

The subject of this data set is platelet function and thrombosis potential. To be noted: previously reported.
With `O=C(O)CNC(=O)Cc1ccccc1`, the “Effect on platelet function and thrombosis potential” value (shortened to “Effect”) was “affect platelet function and thrombosis potential both in vitro and in vivo”.

In the case of `NC(=O)CC[C@H](NC(=O)Cc1ccccc1)C(=O)O`, the “Effect” value was “affect platelet function and thrombosis potential both in vitro and in vivo”.

Consider `Cc1ccc(O[C@@H]2O[C@H](C(=O)O)[C@@H](O)[C@H](O)[C@H]2O)cc1`, for which the “Effect” value is “affect platelet function and thrombosis potential both in vitro and in vivo”.
